Laboratory results from patent publication US11292791B2 (priority 2017, dated 2022).

Molecular target: BRD4 (Homo sapiens (Human), UniProt O60885)
Details: read-out: BRD4 IC50 (μM gmean)

For `COC(=O)N1c2ccc3c(nc(Cn4ccccc4=O)n3[C@H]3CCC[C@@H](O)C3)c2CC[C@@H]1C` [Example 67], the IC50 was 1 to 1000 µM.
`COC(=O)N1c2ccc3c(nc(C(C)Cn4cc(Cl)cn4)n3C3CC4(CCNC4)C3)c2CC[C@@H]1C` (stereo partly shown) [Example 836] was tested, and the IC50 was 0.1 to 1 µM.
Compound `COC(=O)N1c2ccc3c(nc(C(C)c4ccc(OC)c(F)c4)n3C3CCC(C(=O)O)CC3)c2CC[C@@H]1C` (stereo partly shown) [Example 477] has an IC50 of 1 to 1000 µM.
For `COC(=O)N1c2ccc3c(nc(C(C)CN4CCCCC4=O)n3C3CCCC(C(=O)O)C3)c2CC[C@@H]1C` (stereo partly shown) [Example 898], the IC50 was 1 to 1000 µM.
`COC(=O)N1c2ccc3c(nc(C(C)Cc4ccccc4)n3C3CCCNCC3)c2CC[C@@H]1C` (stereo partly shown) [Example 734] gave an IC50 of 1 to 1000 µM.
Compound `COC(=O)N1c2ccc3c(nc(C(O)c4ccc5c(c4)CCO5)n3C3CCCC(C(=O)O)C3)c2CC[C@@H]1C` (stereo partly shown) [Example 460] has an IC50 of 0.1 to 1 µM.
`COC(=O)N1c2ccc3c(nc(C(C)Cn4cc(Cl)cn4)n3C3CCNC3)c2CC[C@@H]1C` (stereo partly shown) [Example 944] showed an IC50 of 1 to 1000 µM.
With `COC(=O)N1c2ccc3c(nc(C(O)c4cc(F)ccc4C(F)F)n3C3CCCC(C(=O)O)C3)c2CC[C@@H]1C` (stereo partly shown) [Example 564] the IC50 was 1 to 1000 µM.
With `COC(=O)N1c2ccc3c(nc(N(C)c4ccccc4)n3[C@H]3CC[C@H](C(=O)O)CC3)c2CC[C@@H]1C` [Example 659] the IC50 was 1 to 1000 µM.
`COC(=O)N1c2ccc3c(nc(C(O)c4cccc5c4COC5)n3C3CCCC(C(=O)O)C3)c2CC[C@@H]1C` (stereo partly shown) [Example 701] was tested, and the IC50 was 1 to 1000 µM.
`COC(=O)N1c2ccc3c(nc(C(C)Cn4cc(Cl)cn4)n3C3CCCNCC3)c2CC[C@@H]1C` (stereo partly shown) [Example 932] showed an IC50 of 1 to 1000 µM.
With `COC(=O)N1c2ccc3c(nc(C(C)Oc4ccccn4)n3C3CCC(C(=O)O)CC3)c2CC[C@@H]1C` (stereo partly shown) [Example 793] the IC50 was 1 to 1000 µM.
`COC(=O)N1c2ccc3c(nc(C(O)c4cc(F)ccc4OC4CC4)n3C3CCCC(C(=O)O)C3)c2CC[C@@H]1C` (stereo partly shown) [Example 678] showed an IC50 of 0.1 to 1 µM.
Work on `COC(=O)N1c2ccc3c(nc(C(C)C(=O)N4CCCCC4)n3C3CCCC(C(=O)O)C3)c2CC[C@@H]1C` (stereo partly shown) [Example 624] yielded an IC50 of 0.1 to 1 µM.
`COC(=O)N1c2ccc3c(nc(C(O)c4cc(Cl)cc(OC)c4)n3C3CCCC(C(=O)O)C3)c2CC[C@@H]1C` (stereo partly shown) [Example 433] gave an IC50 of 0.1 to 1 µM.
`COC(=O)N1c2ccc3c(nc(C(O)c4cc(F)ccc4OC(C)C)n3C3CCCC(C(=O)O)C3)c2CC[C@@H]1C` (stereo partly shown) [Example 662] showed an IC50 of 0.1 to 1 µM.
`COC(=O)N1c2ccc3c(nc(C(O)c4cc(Cl)ccc4OC)n3C3CCCC(C(=O)O)C3)c2CC[C@@H]1C` (stereo partly shown) [Example 630] was tested, and the IC50 was 0.1 to 1 µM.
Work on `COC(=O)N1c2ccc3c(nc(C(C)OC4CCOCC4)n3C3CCCC(C(=O)O)C3)c2CC[C@@H]1C` (stereo partly shown) [Example 603] yielded an IC50 of 1 to 1000 µM.
`COC(=O)N1c2ccc3c(nc(C(C)(O)c4cc(F)ccc4OC)n3C3CCCC(C(=O)O)C3)c2CC[C@@H]1C` (stereo partly shown) [Example 957] showed an IC50 of 1 to 1000 µM.
In the case of `COC(=O)N1c2ccc3c(nc(C(O)c4c(OC)ccc(F)c4OC)n3C3CCCC(C(=O)O)C3)c2CC[C@@H]1C` (stereo partly shown) [Example 770], the IC50 is reported as 1 to 1000 µM.
Compound `COC(=O)N1c2ccc3c(nc(C(O)c4cc5ccccc5cn4)n3C3CCCC(C(=O)O)C3)c2CC[C@@H]1C` (stereo partly shown) [Example 631] has an IC50 of 1 to 1000 µM.
With `COC(=O)N1c2ccc3c(nc(C(C)Cc4ccc(F)c(F)c4)n3C3CCC4(CC3)CNC4)c2CC[C@@H]1C` (stereo partly shown) [Example 921] the IC50 was 1 to 1000 µM.
Work on `COC(=O)N1c2ccc3c(nc(CCC4CCCO4)n3C3CCCC(C(=O)O)C3)c2CC[C@@H]1C` (stereo partly shown) [Example 886] yielded an IC50 of 0.1 to 1 µM.
`COC(=O)N1c2ccc3c(nc(C(C)Cn4cc(Cl)cn4)n3C3CCNC3)c2CC[C@@H]1C` (stereo partly shown) [Example 950] was tested, and the IC50 was 1 to 1000 µM.
For `COC(=O)N1c2ccc3c(nc(C(O)c4ccc(OC)c(F)c4)n3C3CCCC(C(=O)O)C3)c2CC[C@@H]1C` (stereo partly shown) [Example 438], the IC50 was 0.1 to 1 µM.
`COC(=O)N1c2ccc3c(nc(Cc4ccc(OC(F)F)c(F)c4)n3C3CCC(C(=O)O)CC3)c2CC[C@@H]1C` (stereo partly shown) [Example 408] was tested, and the IC50 was 1 to 1000 µM.
`COC(=O)N1c2ccc3c(nc(CC(O)c4ccccc4)n3C3CCCC(C(=O)O)C3)c2CC[C@@H]1C` (stereo partly shown) [Example 647] gave an IC50 of 0.1 to 1 µM.
In the case of `COC(=O)N1c2ccc3c(nc(C(C)Cc4ccccc4)n3C3CCCNCC3)c2CC[C@@H]1C` (stereo partly shown) [Example 953], the IC50 is reported as 1 to 1000 µM.
Work on `COC(=O)N1c2ccc3c(nc(C(O)c4cc(F)cc(F)c4)n3C3CCCC(C(=O)O)C3)c2CC[C@@H]1C` (stereo partly shown) [Example 493] yielded an IC50 of 0.1 to 1 µM.
`COC(=O)N1c2ccc3c(nc(C(C)OC4CCCCC4)n3C3CCC(C(=O)O)CC3)c2CC[C@@H]1C` (stereo partly shown) [Example 558] showed an IC50 of 1 to 1000 µM.
`COC(=O)N1c2ccc3c(nc(CCc4ccccc4)n3[C@H]3CC[C@@H](C(N)=O)CC3)c2CC[C@@H]1C` [Example 77] gave an IC50 of 1 to 1000 µM.
With `COC(=O)N1c2ccc3c(nc(C(O)C4CCCCCC4)n3C3CCCC(C(=O)O)C3)c2CC[C@@H]1C` (stereo partly shown) [Example 615] the IC50 was 1 to 1000 µM.
`COC(=O)N1c2ccc3c(nc(C(C)Cn4cc(Cl)cn4)n3C3CCCNCC3)c2CC[C@@H]1C` (stereo partly shown) [Example 938] showed an IC50 of 1 to 1000 µM.
`COC(=O)N1c2ccc3c(nc(C(C)Oc4cccnc4)n3C3CCC(C(=O)O)CC3)c2CC[C@@H]1C` (stereo partly shown) [Example 599] was tested, and the IC50 was 0.1 to 1 µM.
`COC(=O)N1c2ccc3c(nc(CCC4CCCO4)n3C3CCCC(C(=O)O)C3)c2CC[C@@H]1C` (stereo partly shown) [Example 679] was tested, and the IC50 was 1 to 1000 µM.
`COC(=O)N1c2ccc3c(nc(C(NC(C)=O)c4ccccc4)n3C3CCCC(C(=O)O)C3)c2CC[C@@H]1C` (stereo partly shown) [Example 525] gave an IC50 of 0.1 to 1 µM.
With `COC(=O)N1c2ccc3c(nc(C(C)Cc4cnccn4)n3C3CCC(C(=O)O)CC3)c2CC[C@@H]1C` (stereo partly shown) [Example 801] the IC50 was 1 to 1000 µM.
With `COC(=O)N1c2ccc3c(nc(CCC4CCCO4)n3C3CCCC(C(=O)O)C3)c2CC[C@@H]1C` (stereo partly shown) [Example 897] the IC50 was 1 to 1000 µM.
Work on `COC(=O)N1c2ccc3c(nc(C(C)CN4CCCCC4=O)n3C3CCCC(C(=O)O)C3)c2CC[C@@H]1C` (stereo partly shown) [Example 808] yielded an IC50 of 0.1 to 1 µM.
In the case of `COC(=O)N1c2ccc3c(nc(C(C)Cn4cc(Cl)cn4)n3C3CCNC3)c2CC[C@@H]1C` (stereo partly shown) [Example 811], the IC50 is reported as 1 to 1000 µM.
`COC(=O)N1c2ccc3c(nc(C(O)c4cc(F)cc5cc[nH]c45)n3C3CCCC(C(=O)O)C3)c2CC[C@@H]1C` (stereo partly shown) [Example 448] gave an IC50 of 0.1 to 1 µM.
`COC(=O)N1c2ccc3c(nc(C(O)c4cccc(Cl)c4)n3C3CCCC(C(=O)O)C3)c2CC[C@@H]1C` (stereo partly shown) [Example 523] was tested, and the IC50 was 0.1 to 1 µM.
Compound `COC(=O)N1c2ccc3c(nc(Cn4ccccc4=O)n3[C@@H]3CCC[C@@H](O)C3)c2CC[C@@H]1C` [Example 69] has an IC50 of 1 to 1000 µM.
Work on `COC(=O)N1c2ccc3c(nc(C(C)n4c(O)cc5ccccc54)n3C3CCCC(C(=O)O)C3)c2CC[C@@H]1C` (stereo partly shown) [Example 722] yielded an IC50 of 0.1 to 1 µM.
With `COC(=O)N1c2ccc3c(nc(C(O)c4ccc(C)c(F)c4)n3C3CCCC(C(=O)O)C3)c2CC[C@@H]1C` (stereo partly shown) [Example 415] the IC50 was 0.1 to 1 µM.
`COC(=O)N1c2ccc3c(nc(C(c4ccccc4)C(C)C)n3C3CCC(C(=O)O)CC3)c2CC[C@@H]1C` (stereo partly shown) [Example 869] was tested, and the IC50 was 1 to 1000 µM.
`COC(=O)N1c2ccc3c(nc(C(O)c4ccc5oc(C)nc5c4)n3C3CCCC(C(=O)O)C3)c2CC[C@@H]1C` (stereo partly shown) [Example 565] was tested, and the IC50 was 1 to 1000 µM.
Work on `COC(=O)N1c2ccc3c(nc(C(C)Cn4cc(Cl)cn4)n3C3CC4(CCNC4)C3)c2CC[C@@H]1C` (stereo partly shown) [Example 910] yielded an IC50 of 1 to 1000 µM.
With `COC(=O)N1c2ccc3c(nc(Cn4ccccc4=O)n3[C@H]3CCC[C@H](O)C3)c2CC[C@@H]1C` [Example 70] the IC50 was 1 to 1000 µM.
`COC(=O)N1c2ccc3c(nc(C(O)c4ccc(OC)cc4)n3C3CCCC(C(=O)O)C3)c2CC[C@@H]1C` (stereo partly shown) [Example 682] showed an IC50 of 1 to 1000 µM.
In the case of `COC(=O)N1c2ccc3c(nc(C(C)Cc4cnccn4)n3C3CCCC(C(=O)O)C3)c2CC[C@@H]1C` (stereo partly shown) [Example 848], the IC50 is reported as 1 to 1000 µM.
Work on `COC(=O)N1c2ccc3c(nc(C(C)CN4CCCCC4=O)n3C3CCCC(C(=O)O)C3)c2CC[C@@H]1C` (stereo partly shown) [Example 929] yielded an IC50 of 1 to 1000 µM.
With `COC(=O)N1c2ccc3c(nc(C(O)c4cccc5c4OCC5)n3C3CCCC(C(=O)O)C3)c2CC[C@@H]1C` (stereo partly shown) [Example 578] the IC50 was 1 to 1000 µM.
In the case of `COC(=O)N1c2ccc3c(nc(C(O)c4cc(F)cc(F)c4OC)n3C3CCCC(C(=O)O)C3)c2CC[C@@H]1C` (stereo partly shown) [Example 649], the IC50 is reported as 1 to 1000 µM.
`COC(=O)N1c2ccc3c(nc(C(C)Cc4ccccc4)n3C3CCC4(CC3)CNC4)c2CC[C@@H]1C` (stereo partly shown) [Example 919] showed an IC50 of 1 to 1000 µM.
`COC(=O)N1c2ccc3c(nc(C(C)Cn4cc(Cl)cn4)n3C3CC4(CCNC4)C3)c2CC[C@@H]1C` (stereo partly shown) [Example 959] was tested, and the IC50 was 1 to 1000 µM.
For `COC(=O)N1c2ccc3c(nc(C(O)c4ccc5[nH]ccc5c4)n3C3CCCC(C(=O)O)C3)c2CC[C@@H]1C` (stereo partly shown) [Example 608], the IC50 was 0.01 to 0.1 µM.
Work on `COC(=O)N1c2ccc3c(nc(CCC4CCCCO4)n3C3CCCC(C(=O)O)C3)c2CC[C@@H]1C` (stereo partly shown) [Example 889] yielded an IC50 of 0.1 to 1 µM.
With `COC(=O)N1c2ccc3c(nc(C(O)c4c(OC)ccc(F)c4F)n3C3CCCC(C(=O)O)C3)c2CC[C@@H]1C` (stereo partly shown) [Example 638] the IC50 was 1 to 1000 µM.
`COC(=O)N1c2ccc3c(nc(C(C)OC4CCCCC4)n3C3CCCC(C(=O)O)C3)c2CC[C@@H]1C` (stereo partly shown) [Example 531] gave an IC50 of 0.1 to 1 µM.
In the case of `COC(=O)N1c2ccc3c(nc([C@@H](C)Oc4ccccc4)n3[C@H]3CC[C@H](C(=O)O)CC3)c2CC[C@@H]1C` [Example 529], the IC50 is reported as 1 to 1000 µM.
In the case of `COC(=O)N1c2ccc3c(nc(C(O)c4cc(F)cc(OC)c4)n3C3CCCC(C(=O)O)C3)c2CC[C@@H]1C` (stereo partly shown) [Example 418], the IC50 is reported as 0.1 to 1 µM.
Work on `COC(=O)N1c2ccc3c(nc(CC4CCCCO4)n3C3CCCC(C(=O)O)C3)c2CC[C@@H]1C` (stereo partly shown) [Example 559] yielded an IC50 of 1 to 1000 µM.
`COC(=O)N1c2ccc3c(nc(C(C)Cn4cc(Cl)cn4)n3C3CC4(CCNCC4)C3)c2CC[C@@H]1C` (stereo partly shown) [Example 940] gave an IC50 of 1 to 1000 µM.
`COC(=O)N1c2ccc3c(nc(C(O)c4cc(F)c5c(c4)CCO5)n3C3CCCC(C(=O)O)C3)c2CC[C@@H]1C` (stereo partly shown) [Example 474] showed an IC50 of 0.1 to 1 µM.
For `COC(=O)N1c2ccc3c(nc(C(Cc4ccccc4)NC(C)=O)n3C3CCC(C(=O)O)CC3)c2CC[C@@H]1C` (stereo partly shown) [Example 855], the IC50 was 1 to 1000 µM.
`COC(=O)N1c2ccc3c(nc(C(OC)c4ccccc4)n3C3CCCC(C(=O)O)C3)c2CC[C@@H]1C` (stereo partly shown) [Example 513] was tested, and the IC50 was 1 to 1000 µM.
